pEC50: −log10 of the molar value.
Molecular target: hGPR120 (Homo sapiens, UniProt Q5NUL3)
Assay: Measurement of activity of GPR120 agonist (cell-based calcium fluorescence assay)
Conditions: CHO-K1 cells expressing Ga16 and hGPR120, Calcium 5 dye fluorescence; activity class

The chains behind the UniProt entries cited, without tags or fusion partners.
UniProt Q5NUL3, whole entry: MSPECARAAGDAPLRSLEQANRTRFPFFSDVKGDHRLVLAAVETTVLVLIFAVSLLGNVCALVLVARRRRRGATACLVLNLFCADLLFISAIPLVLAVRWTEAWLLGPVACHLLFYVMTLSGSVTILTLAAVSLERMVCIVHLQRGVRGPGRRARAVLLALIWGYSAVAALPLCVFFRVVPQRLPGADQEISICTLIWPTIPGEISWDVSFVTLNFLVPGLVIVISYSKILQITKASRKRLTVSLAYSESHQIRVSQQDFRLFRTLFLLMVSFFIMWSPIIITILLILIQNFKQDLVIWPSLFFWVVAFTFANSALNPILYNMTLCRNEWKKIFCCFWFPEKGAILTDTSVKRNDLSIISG

SMILES: CC(CCC(=O)O)Sc1ccc(-c2cccnc2SC2CCCC2)cc1 (stereo not shown)
- pEC50: > 6.70
